Out of some 110,000 compounds screened, about 40 (0.04%) were called active. These results got no clear call from the source, so the numbers are uncertain. The call rests on the fitted dose curve; in most records, active means well fitted curve in the direction sought with a large enough effect in the signal ratio (not every such curve was filed as active); inconclusive means small, poorly fitted or top-dose-only effect, or a change in a side signal; inactive means flat fitted curve, though single readings scatter; the % refers to the signal ratio.
experiment: IkB Signaling; settings: ABC-DLBCL IkBa-CBG/CBR dual luciferase ratio (green luciferase fused to IkBa over red control in OCI-Ly3 lymphoma cells), 4 h; IkBa stabilization activation: at 57.1 µM (top of the series), scaled: untreated 0%, proteasome inhibitor 100%;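 on IkBa stabilization activation: 0% = basal untreated cells and 100% = reference inhibitor full response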
Excerpt: NIH Molecular Libraries Screening Centers Network [MLSCN]
NIH Chemical Genomics Center [NCGC]
Nuclear factor kappa-B (NF-kappa-B) plays an important role in normal B cell development and survival. Diffuse large B cell lymphoma (DLBCL) is the most commonly observed type of non-Hodgkin's lymphoma. Gene expression analysis has identified an activated B cell-like subtype of DLBCL (ABC-DLBCL) which expresses known NF-kappa-B target genes. […] However, targets upstream of IKK have been largely unexplored and so nodes upstream of IKK in the NF-kappa-B pathway remain untested due to the lack of chemical probes.
A cell-sensor assay for I-kappa-B-alpha stabilization was developed with NIH investigator Dr. R. Eric Davis in Dr. Louis M. Staudt's laboratory. The assay uses green (CBG68) and red (CBR) emitting beetle luciferases [Chroma-Glo(TM) developed by Promega Corp.] where the green luciferase is fused to I-kappa-B-alpha and the red luciferase is present in its native state. […] Following the addition of doxycycline to induce expression of the luciferases, the green luminescence in control cultures rises only slowly because the CBG fusion partner I-kappa-B-alpha is targeted by IKK activity for rapid degradation. In contrast, green luminescence rises rapidly in the presence of proteasome inhibitors or IKK inhibitors. The rise in red luminescence of CBR is not affected by proteasome or IKK inhibitors, and serves as normalization for cell number and nonspecific effects. […]
Cells were seeded in 1536-well plates at 5000 cells/3ul in IMDM medium containing 0.5% FBS, w/o phenol red, L-glutamine, 25 mM HEPES, 3 mg/ml sodium bicarbonate. […] The plates were measured on a ViewLux plate reader for green luminescence (540/20 nm filter) and red luminescence (618/8 nm filter). The green and red luminescent signals were corrected for red and green luminescence filter overlap using previously determined filter calibration constants (determined using the procedure outlined in the Promega Technical Manual). The %Activity was determined from the ratio of corrected green/red luminescent values. […]
Potency means the concentration at half of the fitted maximal effect.

SMILES	IkBa stabilization activation	Potency
CN(N=O)C(=N)N[N+](=O)[O-]	inconclusive: -3.79%	
Cc1c2non([O-])c-2c(C)[n+](=O)[n+]1[O-]		inconclusive: 3.16 µM
CCc1nc2c(n1)c1c(non1O)c1c2no[n+]1[O-]		inconclusive: 5.01 µM
